Experimental data from US9555029B2, “Methods of colchicine administration” (HIKMA PHARMACEUTICALS, priority 2013, dated 2017).

Assays:
[1] = Colchicine pharmacokinetics coadministered with voriconazole; settings: with vs without voriconazole
[2] = with vs without cimetidine
[3] = Colchicine pharmacokinetics coadministered with fluconazole; settings: with vs without fluconazole
[4] = Incidence of adverse effects for colchicine coadministered with voriconazole
[5] = with vs without clarithromycin; cited from earlier work
[6] = with vs without propafenone
[7] = with vs without ritonavir; cited from earlier work
[8] = with vs without cyclosporine; cited from earlier work
[9] = with vs without ketoconazole; cited from earlier work
[10] = not given; remark: listed apart in the source
[11] = cited from earlier work
[12] = with vs without diltiazem ER; cited from earlier work
[13] = with vs without verapamil ER; cited from earlier work
[14] = not given; remark: listed apart in the source
[15] = with vs without azithromycin; cited from earlier work

In the case of `COc1cc2c(c(OC)c1OC)-c1ccc(OC)c(=O)cc1[C@@H](NC(C)=O)CC2` [Colchicine, (S)N-(5,6,7,9-tetrahydro-1,2,3,10-tetramethoxy-9-oxobenzo[alpha]heptalen-7-yl)acetamide], the “AUCT RATIO of geometric LSmeans Treatment-2/Treatment-1” value [1] is reported as 108.69%, the “AUC∞ RATIO of geometric LSmeans Treatment-2/Treatment-1” value (“AUC∞ RATIO” for short) [1] is reported as 110.77% and the “Cmax RATIO of geometric LSmeans Treatment-2/Treatment-1” value [1] is reported as 79.67%. The “AUCT RATIO of geometric LSmeans Treatment-2/Treatment-1” value [2] was 86.80%, the “AUC∞ RATIO” value [2] was 85.50% and the “Cmax RATIO of geometric LSmeans Treatment-2/Treatment-1” value [2] was 67.45%. The “AUCT RATIO of geometric LSmeans Treatment-2/Treatment-1” value [3] was 140.82%, the “AUC∞ RATIO” value [3] was 143.83% and the “Cmax RATIO of geometric LSmeans Treatment-2/Treatment-1” value [3] was 112.95%. For the same molecule, the “Number of subjects withdrawn for safety reasons” value (shortened to “Number of subjects withdrawn”) ([4]; voriconazole study) was “None”, the “Relative severity of adverse events” value ([4]; voriconazole study) was “Mild to moderate;; also recorded: None severe” and the Safety and tolerability ([4]; with and without co-administration of voriconazole) was “generally safe and well tolerated”. The “AUCT RATIO Treatment-2/Treatment-1” value [5] was 339.21%, the “Cmax RATIO Treatment-2/Treatment-1” value [5] was 297.49% and the “Kel RATIO Treatment-2/Treatment-1” value [5] was 22.35%. The “T1/2el RATIO Treatment-2/Treatment-1” value [5] was 340.97%, the “AUCT RATIO of geometric LSmeans Treatment-2/Treatment-1” value [6] was 101.04% and the “AUC∞ RATIO” value [6] was 99.90%. For the same molecule, the “Cmax RATIO of geometric LSmeans Treatment-2/Treatment-1” value [6] was 106.28%, the “AUCT RATIO Treatment-2/Treatment-1” value [7] was 345.32% and the “CLTOT/F RATIO Treatment-2/Treatment-1” value [7] was 27.37%. For the same molecule, the “Cmax RATIO Treatment-2/Treatment-1” value [7] was 267.08%, the “T1/2el RATIO Treatment-2/Treatment-1” value [7] was 338.42% and the “Number of subjects withdrawn” value (propafenone study) was “None”. For the same molecule, the “Relative severity of adverse events” value (propafenone study) was “Mild to moderate;; also recorded: None severe”, the Safety and tolerability (with and without co-administration of propafenone) was “generally safe and well tolerated” and the “AUCT RATIO Treatment-2/Treatment-1” value [8] was 317.48%. The “CLTOT/F RATIO Treatment-2/Treatment-1” value [8] was 27.82%, the “Cmax RATIO Treatment-2/Treatment-1” value [8] was 324.17% and the “Kel RATIO Treatment-2/Treatment-1” value [8] was 26.07%. For the same molecule, the “AUCT RATIO Treatment-2/Treatment-1” value [9] was 286.75%, the “CLTOT/F RATIO Treatment-2/Treatment-1” value [9] was 30.01% and the “Cmax RATIO Treatment-2/Treatment-1” value [9] was 189.52%. The “Kel RATIO Treatment-2/Treatment-1” value [9] was 22.29%, the “T1/2el RATIO Treatment-2/Treatment-1” value [9] was 415.24% and the “Safety of colchicine when coadministered” value ([10]; Example 4 (fluconazole study), text prints voriconazole) was “comparable to observations in the absence of any coadministered drug”. For the same molecule, the “Number of subjects withdrawn” value ([10]; fluconazole study) was “None”, the “Relative severity of adverse events” value ([10]; fluconazole study) was “Mild to moderate;; also recorded: None severe” and the Safety and tolerability ([10]; with and without co-administration of fluconazole) was “generally safe and well tolerated”. The “Number of subjects withdrawn” value ([11]; colchicine coadministered with azithromycin, vomiting) was 1, the “Number of subjects withdrawn” value ([11]; colchicine coadministered with clarithromycin) was “None” and the “Number of subjects withdrawn” value ([11]; colchicine coadministered with cyclosporine) was “None”. The “Number of subjects withdrawn” value ([11]; colchicine coadministered with diltiazem ER, vomiting) was 1, the “Number of subjects withdrawn” value ([11]; colchicine coadministered with ketoconazole) was “None” and the “Number of subjects withdrawn” value ([11]; colchicine coadministered with ritonavir) was “None”. For the same molecule, the “Number of subjects withdrawn” value ([11]; colchicine coadministered with verapamil ER) was “None”, the “AUCT RATIO Treatment-2/Treatment-1” value [12] was 176.67% and the “CLTOT/F RATIO Treatment-2/Treatment-1” value [12] was 58.94%. For the same molecule, the “Cmax RATIO Treatment-2/Treatment-1” value [12] was 129.03%, the “Kel RATIO Treatment-2/Treatment-1” value [12] was 52.76% and the “T1/2el RATIO Treatment-2/Treatment-1” value [12] was 226.66%. For the same molecule, the “AUCT RATIO Treatment-2/Treatment-1” value [13] was 199.29%, the “CLTOT/F RATIO Treatment-2/Treatment-1” value [13] was 47.81% and the “Cmax RATIO Treatment-2/Treatment-1” value [13] was 129.72%. For the same molecule, the “Kel RATIO Treatment-2/Treatment-1” value [13] was 34.05%, the “T1/2el RATIO Treatment-2/Treatment-1” value [13] was 274.99% and the “Number of subjects withdrawn” value ([14]; cimetidine study) was “None”. The “Relative severity of adverse events” value ([14]; cimetidine study) was “Mild to moderate;; also recorded: None severe”, the Safety and tolerability ([14]; with and without co-administration of cimetidine) was “generally safe and well tolerated” and the “AUCT RATIO Treatment-2/Treatment-1” value [15] was 143.3%. For the same molecule, the “CLTOT/F RATIO Treatment-2/Treatment-1” value [15] was 69.69%, the “Cmax RATIO Treatment-2/Treatment-1” value [15] was 111.15% and the “Kel RATIO Treatment-2/Treatment-1” value [15] was 97.02%. For the same molecule, the “T1/2el RATIO Treatment-2/Treatment-1” value [15] was 110.44%.

“Also recorded” adds a separate entry of the source. Read-outs that look alike come from different tables or passages of the source.
